The source of these data is ChEMBL document CHEMBL1133453, “Further studies on nociceptin-related peptides: discovery of a new chemical template with antagonist activity on the nociceptin receptor” (J Med Chem, 2000).

By UniProt entry, the sequences of proteins in these tests, tags left out. Where a name states a change or a piece, a line headed by the entry shows the natural chain unless it says otherwise.
UniProt P35377: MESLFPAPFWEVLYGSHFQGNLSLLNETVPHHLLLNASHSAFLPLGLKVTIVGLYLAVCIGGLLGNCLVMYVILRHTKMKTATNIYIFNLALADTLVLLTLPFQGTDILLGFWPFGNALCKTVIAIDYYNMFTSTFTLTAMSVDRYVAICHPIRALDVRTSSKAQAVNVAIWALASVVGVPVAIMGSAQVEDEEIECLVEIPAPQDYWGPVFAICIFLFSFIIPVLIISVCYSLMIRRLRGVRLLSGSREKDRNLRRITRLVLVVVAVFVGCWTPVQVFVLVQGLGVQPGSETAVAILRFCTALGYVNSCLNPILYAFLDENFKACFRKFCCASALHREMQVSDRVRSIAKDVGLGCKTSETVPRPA

For one test, the target named is Nociceptin receptor (Mus musculus, UniProt P35377). Description: Affinity to nociceptin receptors on mouse forebrain membranes by [3H]NC-NH2 displacement. In outline: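 Forebrain membranes from male Swiss mice (25-30 g), homogenized in 50 mM Tris HCl, 2 mM EDTA, 100 µM PMSF, pH 7.4, then preincubated 30 min at 37 °C. Bound ligand separated by GF/C filtration. Ki obtained by nonlinear least-squares fitting.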

The species named for test [1] is Mus musculus. As to the kind of experiment: Potency (Emax) against electrically evoked contraction (twitch response) in mouse vas deferens. The class given is functional. In outline:
(§1)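 Mouse vas deferens held in Mg2+-free Krebs at 33 °C under 0.3 g resting tension. Field stimulation through platinum electrodes with supramaximal 1-ms pulses at 0.1 Hz, twitches recorded isotonically. After about 2 h equilibration, cumulative concentration-response curves built in 0.5 log steps up to 10 µM. pEC50 taken as the concentration giving half-maximal effect. Mean of at least 3 experiments.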

The species named for test [2] is Mus musculus. Description: Compound was tested for agonistic activity against electrically evoked contraction (twitch response) in mouse vas deferens. The class given is functional, organism-based. In a few lines:
as §1

Consider `C[C@H](NC(=O)CNC(=O)[C@@H](NC(=O)[C@H](Cc1ccccc1)NC(=O)CNC(=O)CNC(=O)CNCc1ccccc1)[C@@H](C)O)C(=O)N[C@@H](CCCN=C(N)N)C(=O)N[C@@H](CCCCN)C(=O)N[C@@H](CO)C(=O)N[C@@H](C)C(=O)N[C@@H](CCCN=C(N)N)C(=O)N[C@@H](CCCCN)C(N)=O`, for which, on Nociceptin receptor, the Ki (as a rule, the dissociation constant of the complex between target and ligand, obtained from inhibition or displacement) is 100 nM.
With `CC(C)C[C@H](NC(=O)[C@H](CCCCN)NC(=O)[C@H](CCCNC(=N)N)NC(=O)[C@H](C)NC(=O)[C@H](CO)NC(=O)[C@H](CCCCN)NC(=O)[C@H](CCCNC(=N)N)NC(=O)[C@H](C)NC(=O)CNC(=O)[C@@H](NC(=O)[C@H](Cc1ccccc1)NC(=O)CNC(=O)CNC(=O)[C@@H](N)Cc1ccccc1)[C@@H](C)O)C(=O)N[C@@H](C)C(=O)N[C@@H](CC(N)=O)C(=O)N[C@@H](CCC(N)=O)C(N)=O` [NOCICEPTIN-NH2], the Emax (in general, the size of the effect at its maximum, as opposed to the concentration needed) in the test filed under Mus musculus [1] was -79%. In addition, the midpoint of the response in the test listed under Mus musculus [2], the EC50, lay at 20 nM.
